Experimental findings from paper doi:10.1101/2024.12.05.627101v1 (biorxiv, 2024) are described below.

The chains behind the UniProt entries cited, without tags or fusion partners. Residues count along the entry.
UniProt P41594, 21-1180 isoform P41594-2: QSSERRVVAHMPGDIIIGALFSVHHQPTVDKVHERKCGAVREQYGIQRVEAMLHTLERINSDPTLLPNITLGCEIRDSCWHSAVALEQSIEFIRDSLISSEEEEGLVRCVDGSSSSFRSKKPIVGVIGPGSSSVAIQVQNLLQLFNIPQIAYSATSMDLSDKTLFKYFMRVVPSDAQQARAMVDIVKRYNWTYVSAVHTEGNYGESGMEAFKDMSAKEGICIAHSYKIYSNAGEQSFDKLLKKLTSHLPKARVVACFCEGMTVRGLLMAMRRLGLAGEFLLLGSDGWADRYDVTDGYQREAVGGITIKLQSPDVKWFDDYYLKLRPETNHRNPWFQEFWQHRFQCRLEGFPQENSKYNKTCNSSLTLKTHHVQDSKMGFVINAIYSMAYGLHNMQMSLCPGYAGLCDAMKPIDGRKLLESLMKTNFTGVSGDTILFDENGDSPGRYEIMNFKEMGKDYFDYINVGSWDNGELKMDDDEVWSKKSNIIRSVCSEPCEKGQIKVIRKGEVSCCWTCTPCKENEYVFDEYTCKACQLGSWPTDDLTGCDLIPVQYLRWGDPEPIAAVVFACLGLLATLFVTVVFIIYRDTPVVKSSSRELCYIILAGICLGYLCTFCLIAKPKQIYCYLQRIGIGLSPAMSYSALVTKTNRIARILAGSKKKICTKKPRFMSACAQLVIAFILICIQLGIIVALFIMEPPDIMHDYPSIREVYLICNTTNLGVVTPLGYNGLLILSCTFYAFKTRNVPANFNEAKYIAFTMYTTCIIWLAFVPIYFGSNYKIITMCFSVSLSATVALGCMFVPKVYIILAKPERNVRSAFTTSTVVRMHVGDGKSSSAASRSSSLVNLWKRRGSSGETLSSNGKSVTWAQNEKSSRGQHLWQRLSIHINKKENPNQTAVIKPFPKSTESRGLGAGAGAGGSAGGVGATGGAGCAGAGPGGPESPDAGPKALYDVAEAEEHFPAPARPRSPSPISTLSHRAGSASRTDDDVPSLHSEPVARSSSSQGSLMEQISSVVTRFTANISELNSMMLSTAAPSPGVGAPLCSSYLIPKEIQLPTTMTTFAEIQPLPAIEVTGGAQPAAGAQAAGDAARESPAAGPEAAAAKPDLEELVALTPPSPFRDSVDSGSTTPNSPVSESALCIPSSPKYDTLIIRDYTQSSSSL

Like-named read-outs stand apart in the source and are kept apart here.

Experiment [1] addresses T1, human mGlu5 (hmGlu5) (Homo sapiens, UniProt P41594). The experiment is described as follows: whole-cell [3H]methoxy-PEPy inhibition binding. In kind it is cell-based.
Experiment [2] deals with T1, human mGlu5 (hmGlu5). As to the kind of experiment: cell-based. Set-up: species or system HEK293A.
In experiment [3] the target is T1, human mGlu5 (hmGlu5). As to the kind of experiment: IP1 accumulation. In kind it is cell-based.
The target of experiment [4] is T1, human mGlu5 (hmGlu5). The experiment is described as follows: cell-based. Also on record: species or system HEK293A. The source holds these as a separate data set.
Experiment [5] addresses T1, human mGlu5 (hmGlu5). The experiment is described as follows: cell-based. Also on record: species or system HEK293A. The source holds these as a separate data set.
The target of experiment [6] is T1, human mGlu5 (hmGlu5). As to the kind of experiment: IP1 accumulation. In kind it is cell-based. The source holds these as a separate data set.
The target in experiment [7] is T1, human mGlu5 (hmGlu5). As to the kind of experiment: whole-cell [3H]methoxy-PEPy inhibition binding. The experiment is classed as cell-based. The source holds these as a separate data set.
Experiment [8] addresses T1, human mGlu5 (hmGlu5). As to the kind of experiment: cell-based. Also on record: species or system HEK293A. This is another data set of the same source.

One may read the Kd as a measure of binding affinity in units of concentration. The EC50 is the concentration needed to bring the measured effect to its halfway point. `N#Cc1cccc(C(=O)Nc2cc(-c3ccccc3)nn2-c2ccccc2)c1` [CDPPB, 3-cyano-N-(1,3-diphenyl-1H-pyrazol-5-yl) benzamide] showed a Kd at human mGlu5 (hmGlu5) [1] of 245 nM. The figures for the Kb at human mGlu5 (hmGlu5) [2], at human mGlu5 (hmGlu5) [4] and on human mGlu5 (hmGlu5) [5] were 407 nM, 115 nM and 550 nM, respectively. Also, a half-maximal effect at human mGlu5 (hmGlu5) [3] (EC50) was put at 214 nM.

One may read the IC50 as the concentration that inhibits the measured activity by half. Broadly, the Ki is the equilibrium dissociation constant of an inhibitor or competing ligand from its target. Compound `Cc1cccc(C#Cc2ccccc2)n1` [MPEP, 2-methyl-6-(phenylethynyl)pyridine] had an IC50 against human mGlu5 (hmGlu5) [6] of 8.91 nM. For the same compound, the values for the Kb on human mGlu5 (hmGlu5) [2] and at human mGlu5 (hmGlu5) [4] were 0.692 nM and 2.69 nM, respectively. The Ki on human mGlu5 (hmGlu5) [7] was 3.72 nM; on human mGlu5 (hmGlu5) [8], 331 nM.
